The record followed here is patent publication US10039761B2, “Co-crystals and pharmaceutical compositions comprising the same” (Vertex Pharmaceuticals Incorporated, priority 2013, dated 2018).

This assay concerns DU4475 breast cancer line. The assay is described as follows: Doxorubicin or epirubicin combination in DU4475 cells. It counts as cell-based. Particulars: drug in combination with Compound (2). The procedure: The cell-based experiments and assays were performed with either molecule but not always with both. Compounds (1) and (2) were generally very similar in those assays and experiments. Analysis of the combination experiments was performed using two methods: the Bliss Additivity model and the Mixtures Blend method to determine the degree of synergy, additivity, or antagonism. In the Bliss method, a matrix of Bliss scores was generated for each cell line and treatment, and a sum of the Bliss values over the range of combination concentrations tested was calculated. […] Larger average Bliss values indicate greater confidence in reporting synergy, and smaller scores indicate greater confidence in reporting antagonism. In the Mixtures Blend method combinants were added in a range of optimal ratios using design of experiment (DOE) software (DX-8 from STAT-EASE); the cells were irradiated with 2 Gy as required. Synergy was determined using statistical analysis of the data (ANOVA) to indicate linear (additivity) or statistically significant (p<0.1) non-linear (antagonism or synergy) mixes of the combinants.
Combinations of Compound (2) and doxorubicin or epirubicin (DNA intercalator) were tested against breast cancer cell lines (Tables 17 and 18), with a comparison between wild-type and mutant lines being a focus of the study. […]

Take `COc1cccc2c1C(=O)c1c(O)c3c(c(O)c1C2=O)C[C@@](O)(C(=O)CO)C[C@@H]3O[C@H]1C[C@H](N)[C@H](O)[C@H](C)O1` [Doxorubicin, reference compound]: the “Average Bliss score” value turned out to be 31.9.
